# Values quoted from earlier work, collected in patent US20100168443A1, “Ethoid-Containing Compounds, Methods for Preparing Ethoid-Containing Compounds, and Methods of Use” (UNIVERSITY OF VIRGINIA PATENT FOUNDATION, priority 2006, published 2010).
# Sequences of proteins named here, by UniProt entry; tags and fusion partners are left off. A change or cut given only in a name is not applied to a line headed by its entry.
# UniProt P28336: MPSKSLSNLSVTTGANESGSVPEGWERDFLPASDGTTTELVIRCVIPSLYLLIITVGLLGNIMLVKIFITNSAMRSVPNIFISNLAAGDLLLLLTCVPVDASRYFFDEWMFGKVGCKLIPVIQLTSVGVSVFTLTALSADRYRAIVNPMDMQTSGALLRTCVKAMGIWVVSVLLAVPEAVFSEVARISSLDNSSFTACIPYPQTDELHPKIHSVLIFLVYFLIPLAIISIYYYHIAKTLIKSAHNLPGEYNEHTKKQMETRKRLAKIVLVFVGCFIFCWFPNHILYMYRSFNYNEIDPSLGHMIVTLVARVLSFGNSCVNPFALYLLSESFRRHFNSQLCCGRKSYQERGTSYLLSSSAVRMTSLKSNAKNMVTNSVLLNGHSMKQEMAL
# Biological target: T1, Bombesin BB1 HUMAN receptor (Homo sapiens, UniProt P28336)
# T1 construct: host or cells: CHO
# Conditions: radioligand; Human recombinant (CHO cells); cited from earlier work
substance,measurement,value
[125I] (Tyr4)-Bombesin,Kd,0.045 nM
